Reference: published antibiotic growth screens (doi:10.1038/s41589-023-01349-8)
The other results are listed elsewhere or left out.

What follows are molecules tested on A. baumannii ATCC 17978 (assay: relative growth (fraction of control); higher = less inhibition). Settings: 50 µM.
In the case of `O=C(CN1CCOCC1)N[C@H]1CC[C@@H](CCNC(=O)C2CCCCC2)O[C@@H]1CO`, the relative growth is reported as 0.946.
`Cc1cc(O)cc(=O)o1` showed a relative growth of 1.14.
In the case of `COc1ccc2[nH]c(S(=O)Cc3ncc(C)c(OC)c3C)nc2n1` (stereo unspecified), the relative growth is reported as 1.25.
Molecule `O=C(NCCN1CCOCC1)C(=O)NC[C@H]1OCCN1S(=O)(=O)c1ccc(F)cc1` has a relative growth of 1.19.
Work on `Cc1onc(-c2c(Cl)cccc2Cl)c1C(=O)N[C@@H]1C(=O)N2[C@@H]1SC(C)(C)[C@@H]2C(=O)[O-].[Na+]` yielded a relative growth of 1.07.
Work on `C/C=C/c1ccc2c(c1)O[C@@H](CN(C)S(=O)(=O)c1ccc(C)cc1)[C@@H](C)CN([C@H](C)CO)S2(=O)=O` yielded a relative growth of 1.15.
In the case of `C=CC[C@@H](CC(=O)NCCO)C(=O)N[C@H](COC(=O)[C@H](CC=C)CC(=O)OC(C)(C)C)Cc1c[nH]c2ccccc12`, the relative growth is reported as 0.813.
`Cc1cc(F)ccc1S(=O)(=O)N1CCCO[C@@H]1CNC(=O)C(=O)NCc1ccncc1` gave a relative growth of 1.16.
`COc1ccccc1CNC(=O)C[C@H]1CC[C@H]2[C@@H](COC[C@@H](O)CN2C(=O)Nc2ccc(Cl)cc2)O1` gave a relative growth of 1.02.
With `NC[C@H](c1ccco1)N1CCCCCC1` the relative growth was 0.882.
Work on `c1cc2c(cc1-c1nn[nH]n1)OCO2` yielded a relative growth of 0.96.
`COc1ccc([Si](C)(C)[C@@H]2[C@@H](CC(=O)N3Cc4ccccc4C[C@H]3CO)O[C@]3(C(=O)N(Cc4cccc(N5C(=O)c6cccc7cccc5c67)c4)c4ccccc43)[C@H]2C)cc1` gave a relative growth of 1.01.
Work on `C[C@@H]1CN([C@@H](C)CO)S(=O)(=O)c2ccc(C#Cc3ccc(F)cc3)cc2O[C@H]1CN(C)S(C)(=O)=O` yielded a relative growth of 1.03.
`C[C@H]1[C@H]([Si](C)(C)F)[C@@H](CCO)O[C@]12C(=O)N(Cc1cccc(N(C=O)c3ccccc3)c1)c1ccccc12` gave a relative growth of 0.898.
For `O=C(C[C@H]1CC[C@H]2[C@@H](COC[C@@H](O)CN2S(=O)(=O)c2ccc(Cl)cc2)O1)N[C@@H]1CCN(Cc2ccccc2)C1`, the relative growth was 0.928.
`COc1ccc(-n2nc(C(N)=O)c3c2C(=O)N(c2ccc(N4CCCCC4=O)cc2)CC3)cc1` was tested, and the relative growth was 1.04.
`CC(C)NC(=O)N[C@@H]1C=C[C@@H](CC(=O)NCCN2CCCC2)O[C@H]1CO` showed a relative growth of 1.01.
With `COc1ccc(C(C)=O)c(O)c1` the relative growth was 1.06.
In the case of `COCC#Cc1ccc2c(c1)O[C@H](CN(C)S(=O)(=O)c1cccc(OC)c1)[C@@H](C)CN([C@@H](C)CO)S2(=O)=O`, the relative growth is reported as 1.06.
`O=C(C[C@@H]1CC[C@H](NS(=O)(=O)c2ccccc2F)[C@@H](CO)O1)NCCCN1CCOCC1` gave a relative growth of 1.04.
`COc1c(O)cc2c(c1O)[C@@H]1O[C@H](CO)[C@@H](O)[C@H](O)[C@H]1OC2=O` showed a relative growth of 1.03.
Molecule `CC(=O)Oc1cccc(C(=O)O)c1OC(C)=O` has a relative growth of 1.07.
Molecule `Nc1ncn(C(=O)c2ccccc2)n1` has a relative growth of 1.08.
For `CC(=O)CCc1ccc(OC(C)=O)cc1`, the relative growth was 1.01.
With `CN(C)CC(=O)N[C@H]1CC[C@@H](CC(=O)NCCN2CCCCC2)O[C@@H]1CO` the relative growth was 1.1.
`CC(C)[C@H]1CC[C@H](C(=O)N[C@H](Cc2ccccc2)C(=O)O)CC1` was tested, and the relative growth was 1.29.
In the case of `CC(=O)N1c2ccccc2C2=NNC(=S)N[C@]21O`, the relative growth is reported as 1.
`CCC(C)n1ncn(-c2ccc(N3CCN(c4ccc(OC[C@H]5CO[C@](Cn6cncn6)(c6ccc(Cl)cc6Cl)O5)cc4)CC3)cc2)c1=O.Cl.Cl` (stereo partly specified) was tested, and the relative growth was 1.39.
With `CO[C@H]1CN(C)C(=O)c2ccc(NS(C)(=O)=O)cc2OC[C@H](C)N(C(=O)C2CCOCC2)C[C@H]1C` the relative growth was 1.06.
`COc1ccccc1OCCNCC(O)COc1cccc2[nH]c3ccccc3c12` (stereo unspecified) gave a relative growth of 0.834.
`COc1cc(O)c2c(=O)c3cc(OC)c(OC)cc3oc2c1` was tested, and the relative growth was 0.901.
With `CC(C)c1nc(CN(C)C(=O)N[C@H](C(=O)N[C@@H](Cc2ccccc2)C[C@H](O)[C@H](Cc2ccccc2)NC(=O)OCc2cncs2)C(C)C)cs1` the relative growth was 0.941.
`O=C(C[C@@H]1C=C[C@@H](NC(=O)Cc2ccccn2)[C@H](CO)O1)NCCCN1CCOCC1` was tested, and the relative growth was 1.01.
Work on `CN(C)CCCNC(=O)C1CCNCC1` yielded a relative growth of 1.
Work on `CO[C@H]1O[C@H](CO)[C@@H](OC(=O)c2ccc(Br)cc2)[C@@H]2OC(=O)[C@@H](Cc3ccccc3)C/C=C/C[C@H](Cc3ccccc3)C(=O)O[C@@H]12` yielded a relative growth of 1.11.
`CO[C@@H]1CN(C)C(=O)c2ccc(NS(=O)(=O)CC(F)(F)F)cc2OC[C@H](C)N(Cc2nccs2)C[C@@H]1C` gave a relative growth of 0.964.
`CN(C)CCCNC(=O)C[C@H]1CC[C@H](NS(=O)(=O)c2ccccc2)[C@@H](CO)O1` was tested, and the relative growth was 1.11.
Work on `C=CC[C@H](CC(=O)N(CCO)Cc1ccccc1)C(=O)NC[C@@H](OC(=O)[C@@H](CC=C)Cc1ccc(F)cc1)c1ccccc1` yielded a relative growth of 1.29.
`O=C(C[C@H]1CC[C@H]2[C@@H](COC[C@@H](O)CN2Cc2cccc(C(F)(F)F)c2)O1)NCCc1ccncc1` was tested, and the relative growth was 0.853.
Work on `CCNc1nc(NCC)nc(OCC#N)n1` yielded a relative growth of 1.07.
`Cn1ncc2c(NN3C(=O)CCC3=O)ncnc21` gave a relative growth of 0.969.
`O=C(CN1CCOCC1)N[C@@H]1CC[C@H](CCn2cc(C3CC3)nn2)O[C@@H]1CO` showed a relative growth of 0.977.
For `O=C(C[C@@H]1CC[C@H](NS(=O)(=O)c2ccc(F)cc2)[C@H](CO)O1)NCc1ccc(Cl)c(Cl)c1`, the relative growth was 0.859.
`CC1CCc2cc(F)cc3c(=O)c(C(=O)O)cn1c23` (stereo unspecified) was tested, and the relative growth was 0.146.
For `COc1cccc(S(=O)(=O)N2C[C@H](O)COC[C@H]3O[C@H](CC(=O)N4CCN(C)CC4)CC[C@@H]32)c1`, the relative growth was 0.89.
With `CC(=O)O[C@H]1C[C@](C)(O)C2=C[C@@H](O)[C@@](C)(O)[C@@H]2[C@H]2OC(=O)[C@@H](C)[C@@H]21` the relative growth was 1.07.
Molecule `O=C(C[C@@H]1C=C[C@@H](NC(=O)C2CCC2)[C@H](CO)O1)NCCCN1CCOCC1` has a relative growth of 0.892.
`O=C(C[C@H]1CC[C@H]2[C@@H](COC[C@H](O)CN2S(=O)(=O)c2ccc(Cl)cc2)O1)N[C@H]1CCN(Cc2ccccc2)C1` was tested, and the relative growth was 0.949.
Molecule `c1ccc([C@@H]2CCC[C@H](c3ccccc3)S2)cc1` has a relative growth of 0.984.
Work on `C[C@H]1CN([C@@H](C)CO)S(=O)(=O)c2ccc(C#Cc3ccc(F)cc3)cc2O[C@H]1CN(C)C(=O)c1ccccn1` yielded a relative growth of 0.713.
With `C[C@H]1[C@H]([Si](C)(C)F)[C@@H](CC(=O)N(CCO)Cc2ccccc2)O[C@]12C(=O)N(c1ccccc1)c1ccccc12` the relative growth was 0.846.
For `CCCOc1ccc2nc(NC(=O)OC)[nH]c2c1`, the relative growth was 1.22.
`C[C@]12C(=O)N(CCC(=O)O)C(=O)[C@H]1[C@@H]1C=C[C@@H]2C1` gave a relative growth of 0.903.
Molecule `Cn1cnc(S(=O)(=O)N2C[C@H](O)COC[C@@H]3O[C@@H](CC(=O)NC4CCCC4)CC[C@H]32)c1` has a relative growth of 1.01.
`CCOC(=O)C1=C(C)NC(C)=C(C(=O)OC)C1c1cccc([N+](=O)[O-])c1` (stereo unspecified) showed a relative growth of 1.09.
For `Cc1onc(-c2ccccc2Cl)c1C(=O)N[C@@H]1C(=O)N2[C@@H]1SC(C)(C)[C@@H]2C(=O)[O-].[Na+]`, the relative growth was 1.04.
For `CN(C)Cc1cn(CC[C@@H]2CC[C@@H](NC(=O)Cc3cccnc3)[C@H](CO)O2)nn1`, the relative growth was 0.946.
With `O=C(O)[C@H]1/C(=C/CO)O[C@@H]2CC(=O)N21.[LiH]` the relative growth was 0.163.
With `CCN(CC)CCCNC(=O)C1CCNCC1` the relative growth was 1.12.
`COc1ccc(/C=C2/NC(=O)NC2=O)cc1` gave a relative growth of 0.864.
`CCCCCCCCCCCCCCCCC(C(=O)O)C(O)(CC(=O)O)C(=O)O` (stereo unspecified) was tested, and the relative growth was 0.945.
`Cc1ccc(S(=O)(=O)N(C)C[C@@H]2Oc3cc(C#Cc4ccccc4)ccc3S(=O)(=O)N([C@@H](C)CO)C[C@H]2C)cc1` showed a relative growth of 1.07.
`COCC(=O)N[C@@H]1C=C[C@@H](CC(=O)N2CCCCC2)O[C@@H]1CO` was tested, and the relative growth was 1.09.
`CC(C)CC#Cc1cnc2c(c1)C(=O)N([C@H](C)CO)C[C@H](C)[C@H](CN(C)S(=O)(=O)c1cccs1)O2` gave a relative growth of 1.04.
`CCC(=O)N[C@H]1CC[C@@H](CC(=O)OC)O[C@H]1CO` gave a relative growth of 1.04.
Molecule `COC(=O)C[C@H]1NCCNC1=O` has a relative growth of 0.994.
`CCNc1nc(OCCO)nc(N(C)C)n1` gave a relative growth of 1.1.
For `CCC(=O)O[C@]1(C(=O)SCF)[C@H](C)CC2C3CC(F)C4=CC(=O)C=C[C@]4(C)C3(F)[C@@H](O)C[C@@]21C` (stereo partly specified), the relative growth was 1.16.
`COCC#Cc1ccc2c(c1)O[C@H](CN(C)S(=O)(=O)c1cccc(F)c1)[C@@H](C)CN([C@@H](C)CO)S2(=O)=O` gave a relative growth of 0.874.
`CC(=O)N1C[C@@H](O)C[C@H]1C(=O)O` showed a relative growth of 1.11.
`O=C(C[C@@H]1CC[C@@H]2[C@H](COC[C@H](O)CN2S(=O)(=O)c2ccccc2)O1)NCCN1CCCCC1` was tested, and the relative growth was 0.984.
`C[C@H]1CN([C@@H](C)CO)C(=O)Cc2cc(NC(=O)Nc3cc(Cl)cc(Cl)c3)ccc2O[C@H]1CN(C)S(=O)(=O)c1ccc(Cl)cc1` was tested, and the relative growth was 0.898.
`CCn1cc(C(=O)O)c(=O)c2cc(F)c(N3CCNCC3)cc21` gave a relative growth of 0.159.
With `COC(=O)c1c(C)cc(OC(=O)c2c(C)cc(O)c(CO)c2O)c(C)c1O` the relative growth was 0.945.
Molecule `O=C(C[C@@H]1CC=CC[C@@H](Cc2ccc(F)cc2)C(=O)OC[C@H](Cc2c[nH]c3ccccc23)NC1=O)NCCO` has a relative growth of 0.881.
In the case of `O=C(NO)c1cccc(C(=O)N/N=C/[C@H](O)[C@@H](O)[C@H](O)[C@H](O)CO[C@H]2O[C@H](CO)[C@H](O)[C@H](O)[C@H]2O)c1`, the relative growth is reported as 0.84.
`O=C(C[C@@H]1C=C[C@@H](NC(=O)CN2CCOCC2)[C@H](CO)O1)NC1CCCCC1` was tested, and the relative growth was 1.06.
With `Cc1ccc(N2C(=O)c3ccccc3[C@@H](C(=O)NCCN3CCOCC3)[C@@H]2c2ccc(CO)cc2)nc1` the relative growth was 1.18.
With `CO[C@H]1CN(C)C(=O)c2ccc(NC(C)=O)cc2OC[C@@H](C)N(S(=O)(=O)c2cn(C)cn2)C[C@@H]1C` the relative growth was 1.01.
`O=c1c(O)c(-c2ccc(O)c(O)c2)oc2c(O[C@@H]3O[C@H](CO)[C@@H](O)[C@H](O)[C@H]3O)c(O)cc(O)c12` was tested, and the relative growth was 0.985.
With `COCCNC(=O)C[C@@H]1CC[C@H]2[C@@H](COC[C@@H](O)CN2S(=O)(=O)c2ccccc2C)O1` the relative growth was 1.2.
